# Compound activity from PubChem BioAssay.
# miR-21 FLuc = raises the signal of a miR-21 reporter | AID 2288 | 340,000 tested, under 10 active | Potency, µM (series often up to 38.3 µM), without a hit: at the highest dose reporter change, positive = more light | HeLa miR-21 FLuc reporter, luciferase, 48 h; active = well fitted rising curve with a large enough effect; inconclusive = small, poorly fitted or top-dose-only effect; inactive = no such curve, though single readings can be large or run the other way;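 further: % of control where 0% means no effect; miR-21 action dims this reporter so a rising signal means less miR-21 action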
#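 Compounds were titrated across several concentrations (up to approximately 40 uM) and incubated 48 hours with HeLa miR-21-FLuc reporter cells (miR-21 target sequence downstream of FLuc, endogenous miR-21). Readout was firefly luciferase luminescence after lytic detection reagent.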
# Nrf2 ARE act = Nrf2 pathway activation; AREc32 ARE-luciferase reporter (MCF7-derived line), luminescence, 24 h; Potency, µM (titrated, usually from 46.1 µM), without a hit: at the top dose activation, most hits filed as activators; hit rate 0.31% among 410,000; note: potency is the fitted concentration of half-maximal effect; % of control where 0% means no effect; nearly all actives have a fitted effect of over 65% in size
#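 Nrf2 activation is followed as ARE-luciferase induction in the AREc32 line after one day of compound treatment; luminescence is read with Steady-Glo.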
# A549 viability = counter-screen for Nrf2 inhibitors: cytotoxicity in A549 cells; A549 ARE-Fluc cells, CellTiter-Fluor viability, 18-24 h; hit rate 0.16% among 390,000; AID 504648; Potency, µM (doses to about 46 µM), for the others: top-dose activity change, negative = cytotoxicity, most hits filed as inhibitors; note: potency is the fitted concentration of half-maximal effect; % is set by controls: 0 for no effect and ±100 for the full control effect
#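 A549 ARE_Fluc cells in 5% FBS OPTI-MEM were exposed to compounds in concentration-response for 18-24 h at 37 deg C. Viability was read by CellTiter-Fluor fluorescence (Ex 405/Em 525) after 30 min, before the luciferase read.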
# Nrf2 block = inhibitors of Nrf2 signaling. hit rate 2.1% among 360,000. AID 504444. A549 ARE-Fluc reporter, luciferase luminescence, 18-24 h. Potency, µM (doses to about 46 µM), without a hit: top-dose activity change, negative = inhibition, most hits filed as inhibitors; note: potency is the fitted concentration of half-maximal effect; % is set by controls: 0 for no effect and ±100 for the full control effect; nearly all actives have a fitted effect of over 60% in size
#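 Quantitative HTS in A549 cells stably bearing an antioxidant response element-firefly luciferase construct. Inhibition of Nrf2-driven transcription was scored by luminescence after 18-24 h of compound exposure at 37 °C.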
# Glioma ERSR ind = ER stress response induction in glioma. Potency, µM, without a hit: at the highest dose activation, usual class: activators. U87-MG GRP78 promoter luciferase reporter, 16 h. hit rate 0.02% among 420,000; note: potency is the fitted concentration of half-maximal effect; series mostly up to about 76 µM; % of control where 0% means no effect; nearly all actives have a fitted effect of over 35% in size
#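 ERSR induction read as luciferase luminescence (Bright-Glo, 10 min at room temperature) in stably transfected human U87-MG glioma cells exposed to compounds for 16 h, using GRP78 as sensor.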
# TSG101-PTAP inh = blocks PTAP/TSG101 interaction to inhibit HIV-1 budding; 340,000 tested, under 10 active; Potency, µM (highest dose often 115 µM), for inactives: at the highest dose activity change, negative = inhibition, actives largely listed as inhibitors; AID 493005; Q99816; Fluorescence polarization, FITC-PTAP peptide / Tsg101 binding; active = well fitted inhibition curve with a large enough effect in the main read-out, with a control signal flat, not every such curve was filed as active; inconclusive = small, poorly fitted or top-dose-only effect, or effect the other way, or a change in a side signal; inactive = no such curve, though single readings can be large or run the other way; note: potency is the fitted concentration of half-maximal effect; % of control where 0% means no effect
#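 Fluorescence anisotropy tracks displacement of a FITC-tagged PTAP peptide (50 nM) from the Tsg101 binding domain (10 uM), following a 20 min room-temperature incubation at pH 7.5.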
# Active calls of the source: *; ? = inconclusive; nt = not tested or not shown. Hits are enriched below; roughly 2.1% of the tested compounds scored in any of these assays. Unless noted, calls come from the whole dose curve; as a rule, active = well fitted curve in the direction sought with a large enough effect; inconclusive = small, poorly fitted or top-dose-only effect, or another doubt; inactive = no such curve, though single readings can be large; an effect the other way counts as inactive or inconclusive.
Molecule | miR-21 FLuc | Nrf2 ARE act | A549 viability | Nrf2 block | Glioma ERSR ind | TSG101-PTAP inh
CCCCNC(=O)[C@@H]1CC=C[C@@H]2CCN(Cc3ccc(OC)c(OC)c3)C(=O)[C@@H]21 | nt | nt | nt | nt | -3% | nt
NC(=O)CC(NC(=O)Cc1ccc(Br)cc1)c1ccc(NC2CCCCCC2)c([N+](=O)[O-])c1 (stereo not given) | -2% | -1% | ? | 23µM* | -4% | 9%
CCOc1cc(C)nc(NCCc2ccc(OC)c(OC)c2)n1 | -6% | 0% | 5% | 26µM* | -2% | 3%
COc1ccc(CCNc2ncnc3sc(C)cc23)cc1OC | ? | 1% | -18% | 23µM* | 2% | -5%
COc1ccc(CCNc2ncnc3[nH]ncc23)cc1OC | 10% | 2% | -3% | ? | -5% | 0%
CCN1C(=O)CC(CC(=O)N2CCC(c3nc4ccc(F)cc4[nH]3)CC2)(c2ccccc2C)C1=O (stereo not given) | nt | nt | nt | nt | -6% | nt
COc1ccc(-c2cc3nc(-c4ccccc4)cc(N4CCCC(O)C4)n3n2)cc1 (stereo not given) | 19% | -4% | ? | 13µM* | -3% | 0%
O=C(CCc1ccccc1)NC(NC(=S)Nc1ccc(Br)cc1)C(Cl)(Cl)Cl (stereo not given) | 23% | 8% | ? | 9.2µM* | 7% | -5%
O=C1C2C3C=CC(C3)C2C(=O)N1c1cccc(-c2nc3ccccc3o2)c1 (stereo not given) | -4% | 0% | -3% | 16% | -1% | 5%
O=C(Nc1cccc(-c2nc3ccccc3o2)c1)c1ccc(N2C(=O)C3C4C=CC(C4)C3C2=O)cc1 (stereo not given) | 8% | -1% | ? | 9.2µM* | -6% | 1%

# The listing continues:
Molecule | miR-21 FLuc | Nrf2 ARE act | A549 viability | Nrf2 block | Glioma ERSR ind | TSG101-PTAP inh
COc1ccc(CN2CCc3nnc(CCc4ccccc4)n3CC2)c(OC)c1C | nt | nt | nt | nt | -1% | nt
O=C1CCc2cc(S(=O)(=O)Nc3cccc(B(O)O)c3)ccc2N1 | nt | nt | -6% | ? | nt | nt
COc1cc(/C=N/n2cnnc2)ccc1OS(=O)(=O)c1ccccc1[N+](=O)[O-] | -12% | 13µM* | 3% | 3% | 3% | -1%
OCCNc1c2ccccc2nc2c(F)c(F)c(F)c(F)c12 | -8% | 11µM* | 7% | 5% | -7% | -5%
CN(C)CCCNc1c2ccccc2nc2ccccc12 | 29% | -1% | 8.2µM* | 8.2µM* | -8% | 3%
Cc1cccc(C(=O)NC2CCN(C#N)CC2)c1 | nt | nt | -3% | -8% | nt | nt
COCCn1c(SCC(=O)NCc2ccccc2)nc2ccccc21 | 1% | 0% | 11% | -8% | -2% | -4%
COCCn1c(SCc2csc(-c3ccccc3)n2)nc2ccccc21 | -3% | 1% | -22% | 21µM* | 0% | -2%
CC(C)(C)C(=O)NC(=S)NNC(=O)c1ccc(-c2ccccc2)cc1 | 18% | -2% | ? | 2.9µM* | ? | -1%
CC(C)(C)C(=O)NC(=S)NNC(=O)c1ccc(Cl)cc1Cl | 9% | 0% | ? | 8.2µM* | ? | -2%

# Continued:
Molecule | miR-21 FLuc | Nrf2 ARE act | A549 viability | Nrf2 block | Glioma ERSR ind | TSG101-PTAP inh
Cc1nc2ccc(S(=O)(=O)Nc3cc(-c4nc5cccnc5s4)ccc3C)cc2s1 | -26% | 1% | -11% | 19% | -1% | -3%
Cc1nc2ccc(S(=O)(=O)Nc3cccc(-c4nc5cccnc5s4)c3C)cc2s1 | 6% | -3% | -9% | 23µM* | -2% | -2%
C1=Cc2ccccc2/C1=C\c1cc2c3c(c1)CCCN3CCC2 | nt | nt | nt | nt | 1% | nt
C=CCNc1ncnc2c1[nH]c1ccc(Cl)cc12 | -9% | 18% | ? | 8.2µM* | 1% | 1%
C=CCNc1ncnc2c1[nH]c1ccccc12 | 1% | 27% | -13% | ? | -3% | -4%
c1cnc2cc3c(cc2n1)[C@@H]1CNC[C@@H]3C1 | nt | nt | nt | nt | -1% | nt
Cc1nc(-c2cccc(NC(=O)c3ccc(-n4nccc4C)cc3)c2)cs1 | nt | -1% | -10% | 16µM* | -4% | 0%

# Compound profiles, as listed above.
# `Cc1nc2ccc(S(=O)(=O)Nc3cc(-c4nc5cccnc5s4)ccc3C)cc2s1` is entered as miR-21 FLuc: -26%; Nrf2 ARE act: 1%; A549 viability: -11%; Nrf2 block: 19%; Glioma ERSR ind: -1%; TSG101-PTAP inh: -3%
# `C=CCNc1ncnc2c1[nH]c1ccc(Cl)cc12` is entered as miR-21 FLuc: -9%; Nrf2 ARE act: 18%; A549 viability: ?; Nrf2 block: 8.2µM*; Glioma ERSR ind: 1%; TSG101-PTAP inh: 1%
